For one compound, Cmax results are on record in patent US20130345182A1, “STABLE COMPOSITION COMPRISING CHOLESTEROL-LOWERING AGENTS, ANTIHYPERTENSIVE AGENTS AND ANTIPLATLET AGENTS” (Silanes Laboratories, priority 2010, published 2013).

For this data set the following is noted: human, in vivo.

Each structure is given as a SMILES string.

Broadly, the Cmax is the maximum level reached in the sampled fluid or tissue. On to `CC[C@H](C)C(=O)O[C@H]1C[C@H](O)C=C2C=C[C@H](C)[C@H](CC[C@@H](O)C[C@@H](O)CC(=O)O)[C@H]21` [Pravastatin sodium, pravastatin sodium], for which the maximum concentration (Cmax) is listed as 240.56 ng/mL.
